# pKi: −log10 of the molar value. Structures can show the parent of a compound that is named as a salt.
# Chains of the proteins cited; added tags and fusions are not shown.
# UniProt P08908, whole entry: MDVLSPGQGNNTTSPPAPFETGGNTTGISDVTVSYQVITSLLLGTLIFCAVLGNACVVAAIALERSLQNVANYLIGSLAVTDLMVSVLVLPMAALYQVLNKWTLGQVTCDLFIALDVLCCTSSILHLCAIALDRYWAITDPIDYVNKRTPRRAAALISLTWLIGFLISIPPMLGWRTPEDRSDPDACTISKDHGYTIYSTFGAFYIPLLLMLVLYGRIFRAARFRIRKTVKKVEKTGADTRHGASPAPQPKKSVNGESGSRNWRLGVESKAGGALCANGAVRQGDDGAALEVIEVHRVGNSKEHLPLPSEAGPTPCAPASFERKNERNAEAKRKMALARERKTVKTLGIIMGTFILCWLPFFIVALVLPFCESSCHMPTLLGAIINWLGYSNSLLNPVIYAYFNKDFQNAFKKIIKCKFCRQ
# UniProt P34969, whole entry: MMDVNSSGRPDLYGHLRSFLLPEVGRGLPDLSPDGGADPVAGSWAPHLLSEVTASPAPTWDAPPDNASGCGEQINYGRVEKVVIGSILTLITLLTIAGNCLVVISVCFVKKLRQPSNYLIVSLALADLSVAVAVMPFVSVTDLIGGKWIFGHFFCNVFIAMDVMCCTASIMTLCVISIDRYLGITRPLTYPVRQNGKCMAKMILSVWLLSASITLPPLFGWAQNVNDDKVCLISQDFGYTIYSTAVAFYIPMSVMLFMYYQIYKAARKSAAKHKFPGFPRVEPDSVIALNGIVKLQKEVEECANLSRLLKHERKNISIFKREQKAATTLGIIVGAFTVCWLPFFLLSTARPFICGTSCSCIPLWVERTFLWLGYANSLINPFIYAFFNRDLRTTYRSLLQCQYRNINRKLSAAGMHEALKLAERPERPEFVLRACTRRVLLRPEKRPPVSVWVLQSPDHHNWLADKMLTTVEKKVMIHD
# Columns and labels:
# [1] = target: 5-hydroxytryptamine receptor 1A (Homo sapiens, UniProt P08908); assay: (§1) The composition of the assay buffers was as follows: for 5-HT1AR: 50 mM Tris HCl, 0.1 mM EDTA, 4 mM MgCl2, 10 µM pargyline, and 0.1% ascorbate; for 5-HT6R: 50 mM Tris HCl, 0.5 mM EDTA, and 4 mM MgCl2; and for 5-HT7bR: 50 mM Tris HCl, 4 mM MgCl2, 10 µM pargyline, and 0.1% ascorbate. All assays were incubated in a total volume of 200 µL in 96-well microtiter plates for 1 h at 37 °C, except for 5-HT1AR which were incubated at room temperature for 1 h. The process of equilibration is terminated by rapid filtration through Unifilter plates with a 96-well cell harvester, and radioactivity retained on the filters was quantified on a Microbeta plate reader.; conditions: 25 °C
# [2] = target: 5-hydroxytryptamine receptor 7 (Homo sapiens, UniProt P34969); assay: as §1; conditions: 25 °C
structure (smiles),measurement,setting,value
"COc1ccccc1N1CCN(CCCOc2cc(C)ccc2C)CC1 [1-[(2,5-dimethylphenoxy)propyl]-4-(2-methoxyphenyl)piperazine hydrochloride (2)]",pKi,[1],> 9.00
same,pKi,[2],7.64

# Source: BindingDB's records for doi:10.1111/cbdd.12394 (Jagiellonian University Medical College, 2015)
